Experimental data reported in patent publication US9855245B2, “Methods for improving lipid profiles using atrasentan” (AbbVie Inc., priority 2013, dated 2018).

Tests used:
[1] = system: subjects with type 2 diabetes and nephropathy; test: Example 3: Phase 2b randomized, double-blind, placebo-controlled 8-week study with thoracic bioimpedance; type: in vivo, human
[2] = system: subjects with type 2 diabetes and nephropathy; test: Example 1: Phase 2b randomized, double-blind, placebo-controlled 12-week clinical study
[3] = system: subjects with type 2 diabetes and nephropathy; test: Example 2: Phase 2b randomized, double-blind, placebo-controlled 12-week study conducted in Japan
[4] = both doses (0.75 mg and 1.25 mg), within 2 weeks, sustained over 12 weeks

Compound: CCCCN(CCCC)C(=O)CN1C[C@H](c2ccc3c(c2)OCO3)[C@@H](C(=O)O)[C@@H]1c1ccc(OC)cc1 [Atrasentan, (2R,3R,4S)-4-(1,3-benzodioxol-5-yl)-1-[2-(dibutylamino)-2-oxoethyl]-2-(4-methoxyphenyl)pyrrolidine-3-carboxylic acid]
- mean eGFR, placebo vs either atrasentan treatment group (repeated-measures analysis) ([1]; 0.5 mg and 1.25 mg): no statistically significant differences
- change from baseline to Week 8 in log-transformed UACR (primary endpoint), treatment differences ([1]; 0.5 mg and 1.25 mg vs placebo): not statistically significantly different from placebo
- reduction in UACR ([1]; both doses (0.5 mg and 1.25 mg), within 2 weeks, sustained over 8 weeks for 1.25 mg): approximately 30%
- mean systolic blood pressure, differences from placebo ([2]; 0.75 mg and 1.25 mg): not statistically significant at any time point
- mean ambulatory diastolic blood pressure, differences from placebo ([2]; 0.75 mg and 1.25 mg, Weeks 6 and 10): statistically significant at both time points
- mean eGFR change from baseline, atrasentan groups vs placebo ([2]; 0.75 mg and 1.25 mg, each postbaseline time point): no statistically significant differences
- reduction in UACR [2, 4]: more than 30%
- mean diastolic blood pressure, differences between atrasentan and placebo ([3]; 0.75 mg and 1.25 mg): not statistically significant
- mean systolic blood pressure, differences between treatment groups ([3]; 0.75 mg and 1.25 mg): no statistically significant differences between treatment groups
- reduction in UACR [3, 4]: more than 30%
